Structures are written as SMILES. Several values for one entry are separate records, joined by “and”; a condition that tells them apart may be missing. Equal entries are not always repeated. This is a selection; strong and weak results do not stand in their true shares. Inconclusive results are not listed. Activity calls are given as the source filed them. The call rests on the fitted dose curve; in most records, active means well fitted cell-killing curve with a large enough effect in the repeat runs; inconclusive means weak or mixed curves, or effect the other way; inactive means flat fitted curve, though single readings scatter.
On the % scale 0 is the no-effect control and ±100 the full control effect.

The nature of one assay: qHTS assay to identify small molecule agonists of the estrogen receptor beta (ER-beta) signaling pathway - cell viability counter screen (AID 1259380). Further: nearly all actives have a fitted effect of over 30% in size. The conditions noted are these: ER-beta-bla HEK293T viability, CellTiter-Glo luminescence, 16 h; at 42.5 µM (top of the series). The text has this: National Center for Advancing Translational Sciences [NCATS]
NIH Chemical Genomics Center [NCGC]
U.S. Environmental Protection Agency [EPA]
National Institutes of Environmental Health Sciences [NIEHS]
National Toxicology Program [NTP]
U.S. Food and Drug Administration [FDA]
Estrogen receptor (ER), a nuclear hormone receptor, plays an important role in development, metabolic homeostasis and reproduction. Two subtypes of ER, ER-alpha and ER-beta, have similar expression patterns with some uniqueness in both types. Endocrine disrupting chemicals (EDCs) and their interactions with steroid hormone receptors like ER causes disruption of normal endocrine function. To identify the compounds that activate ER signaling, an ER beta-UAS-bla GripTite cell line (Life Technologies, Madison, WI, USA) containing a beta-lactamase reporter gene under the control of an UAS response element was used to screen Tox21 10K compound library. The cytotoxicity of the Tox21 compound library against the ER-beta-bla cell line was tested in parallel by measuring the cell viability using CellTiter-Glo assay in the same wells.
Tox21 Assay Protocol Summary:
ER-beta-UAS-bla HEK293T cells were dispensed at 2,000 cells/5 uL of assay medium containing 2% charcoal stripped FBS per well into black wall/clear-bottom 1536-well plates using a Multidrop Combi (ThermoFisher Scientific, Waltham, MA) dispenser. After the assay plates were incubated at a 37C and 5% CO2 for 6 hr, 23 nL of compounds dissolved in DMSO, positive controls or DMSO only was transferred to the assay plate by a Pintool station (Kalypsys, San Diego, CA). The plates were incubated at 37C and 5% CO2 for 16 hr. Then 1 uL of LiveBLAzerTM B/G FRET substrate was added using a BioRAPTR FRD (Flying Reagent Dispenser, Aurora Discovery, San Diego, CA) and then the plates were incubated at room temperature for 2 hours, and fluorescence intensity was measured by an Envision plate reader (PerkinElmer, Shelton, CT). For cell viability readout that measures cytotoxicity, 4 uL/well of CellTiter-Glo reagent was added into the assay plates using a FRD. After 30 min incubation at room temperature, the luminescence intensity in the plates was measured using a ViewLux (PerkinElmer) plate reader.
(qHTS replaces the single test concentration by a dilution series.)
For `NC(=O)Nc1ccc([As](=O)(O)O)cc1`, the activity change, negative = cytotoxicity is inactive: 5.1%.

Still in this assay, the particulars now being: ER-beta-bla HEK293T viability, CellTiter-Glo luminescence, 16 h; at 92.4 µM (top of the series).
Consider `NC(=O)Nc1ccc([As](=O)(O)O)cc1`, for which the activity change, negative = cytotoxicity is inactive: 8.58%.

The same assay, now with this note: ER-beta-bla HEK293T viability, CellTiter-Glo luminescence, 16 h; at 92.4 µM (top of the series) unless noted.
Regarding `O=C(Cl)Oc1ccccc1`, the activity change, negative = cytotoxicity was inactive: -3%.
Still for that read-out and setting: the figure for `CCNC(C)Cc1ccc2c(c1)OCO2` (centres undefined) is inactive: 3.51%.
Same read-out and setting: next, `O=[p+]1oc2ccccc2c2ccccc21` (centres undefined): inactive: -5.73%; `Cc1cc([N+](=O)[O-])cc([N+](=O)[O-])c1O`: inactive: -9.39%.
The same measure, in the same setting: next, `O=[P+](Oc1ccccc1)Oc1ccccc1`: inactive: 8.64%; `CCOP(=S)(CC)Sc1ccccc1` (centres undefined): inactive: -0.342%; `O=P(Cl)(Oc1ccccc1)Oc1ccccc1`: inactive: 0.123%.
`COC(=O)Cl`: the activity change, negative = cytotoxicity is inactive: -1.37%.
Still for that read-out and setting: next, `CC(C)CCCCCCCOP(OCCCCCCCC(C)C)Oc1ccccc1`: inactive: -1.73%; `COP(=S)(Cl)OC`: inactive: 6.42%; `CCCCOP(OCCCC)OCCCC`: inactive: 0.45%.
The same measure, in the same setting: next, `CCC(C)(OOC(C)(C)C)OOC(C)(C)C`: inactive: 0.479% [at 19 µM].
On the same count and under the same terms, next, `CN(C(=O)Cc1ccc(Cl)c(Cl)c1)[C@H]1CC[C@@]2(CCCO2)C[C@@H]1N1CCCC1`: inactive: -9.34% [at 42.5 µM].
For the molecule `CCCCC(CC)CO[P+](=O)OCC(CC)CCCC` (centres undefined), the activity change, negative = cytotoxicity was inactive: 3.98%.
Same read-out and setting: the figure for `CN(N=O)C(=N)N[N+](=O)[O-]` is inactive: -1.34%; for `ClP(Cl)c1ccccc1` it is inactive: 1.78%; for `O=[N+]([O-])c1ccc(S(=O)(=O)O)c([N+](=O)[O-])c1` it is inactive: 1.77%.
On the same count and under the same terms, next, `CCCCO[P+](=O)OCCCC`: inactive: -2.06% and inactive: 1.79%; `CCOC(=O)Cl`: inactive: -0.0063%.
Still for that read-out and setting: the figure for `O=C(Cl)OCCOC(=O)Cl` is inactive: -2.27%; for `CN(C(=O)Cc1ccccc1)[C@H]1CC[C@@]2(CCCO2)C[C@@H]1N1CCCC1` it is inactive: 8.03% [at 42.5 µM].
Turning to `CN(C(=O)Cc1cccc2occc12)[C@H]1CC[C@@]2(CCCO2)C[C@@H]1N1CCCC1`, the activity change, negative = cytotoxicity was inactive: 1.34%.

The record behind these values is PubChem BioAssay (Tox21).
